# Values quoted from earlier work in US20250000818A1, “NEW SYNERGISTIC COMBINATIONS BASED ON FENM AND AN ACETYLCHOLINESTERASE INHIBITOR” (REST Therapeutics, priority 2021, published 2025).
# Conditions: source France Alzheimer; cited from earlier work
substance,measurement,value
Aducanumab,treated patients presenting cerebral microhemorrhages and cerebral edema,Approximately 35%
